# Data from PubChem BioAssay AID588334 (Broad Institute, 2011).
# The entries are a selection whose mix differs from that of the whole data set. Some salts or complexes appear as unconnected parts, following the source record. Calls of active or inactive are those of the source.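 Rule for the calls: active = mean activation of at least 80% with every replicate also reaching 80%; inconclusive = mean reaches 80% but some replicate falls short; inactive = the rest.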
# Assay: activators of MITF-driven TRPM1 promoter reporter, primary screen, cell-based, SK-MEL-5, luciferase, single point (AID 588334);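 note: 0% = neutral control wells and 100% = parthenolide positive control wells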
# Conditions: SK-MEL-5 TRPM1-promoter luciferase, 24 h; at 12.5 µM; active compounds read high; % of positive control, neutral wells = 0
row,Structure (SMILES),activation
1,COc1ccccc1OP(C)(=O)Nc1cc(Cl)ccc1C (centres undefined),inactive: -0.964%
2,Cc1cc(C)cc(OP(C)(N)=O)c1 (centres undefined),inactive: 1.04%
3,CCOC(=O)c1ccc(NP(C)(=O)Oc2ccccc2)cc1 (centres undefined),inactive: -6.16%
4,COc1ccccc1OP(C)(=O)Nc1ccc(C)cc1 (centres undefined),inactive: -14%
5,Cc1ccc(NP(C)(=O)Oc2ccccc2)c(C)c1 (centres undefined),inactive: -5.2%
6,CC(C)(C)c1ccc(OP(C)(=O)Nc2ccc(SC(F)(F)F)cc2)cc1 (centres undefined),inactive: -8.49%
7,Cc1cccc(C)c1OP(C)(N)=O (centres undefined),inactive: 0.443%
8,O=[N+]([O-])c1ccc2c(c1)C=Nc1ccccc1O2,inactive: -11.2%
9,O=[N+]([O-])c1cc([N+](=O)[O-])c(Nc2cccnc2)c([N+](=O)[O-])c1,inactive: 0.718%
10,CCN(CC)CCCOC(=O)C(O)(c1ccccc1)c1ccccc1,inactive: -8.15%
11,CP(=O)(Nc1ccccn1)Oc1ccc(Cl)cc1 (centres undefined),inactive: 4.45%
12,CCOP(C)(=S)SCC(=O)NC(C)C(=O)O (centres undefined),inactive: -3%
13,CCOC(=O)c1ccc(NP(C)(=O)Oc2ccc(OC)cc2)cc1 (centres undefined),inactive: 6.65%
14,CP(=O)(NC(=O)Nc1ccccc1)Oc1ccccc1 (centres undefined),inactive: -2.8%
15,Cc1cc(C)cc(OP(C)(=O)Nc2ccc(SC(F)(F)F)cc2)c1 (centres undefined),inactive: 0.373%
16,Cc1cccc(C)c1OP(C)(=O)Nc1ccc(SC(F)(F)F)cc1 (centres undefined),inactive: 17.1%
17,CP(=O)(Oc1ccccc1)OC(c1ccccc1)C(F)(F)F (centres undefined),inactive: -9.15%
18,COc1ccccc1OP(C)(=O)Nc1ccccc1 (centres undefined),inactive: 19.8%
19,CP(=O)(Nc1ccccc1Br)Oc1ccccc1 (centres undefined),inactive: -2.34%
20,CP(=S)(Nn1cnnc1)Oc1ccccc1 (centres undefined),inactive: -5.34%
21,CP(=O)(Nc1ccc(SC(F)(F)F)cc1)Oc1ccccc1 (centres undefined),inactive: 9.16%
22,CCCOc1ccc(NP(C)(=O)Oc2ccc(Cl)cc2)cc1 (centres undefined),inactive: 0.0185%
23,CN1CCCCC1COC(=O)C1(O)c2ccccc2CCc2ccccc21 (centres undefined),inactive: -3.61%
24,O=[N+]([O-])c1cc([N+](=O)[O-])c(Nc2nnnn2CCO)c([N+](=O)[O-])c1,inactive: 4.9%
25,CC1=C2N=C(C=C3N=C(C(C)=C4[N-][C@@](C)([C@@H]5N=C1[C@](C)(CCC(=O)NC[C@@H](C)OP(=O)([O-])O[C@H]1[C@@H](O)[C@@H](n6cnc7cc(C)c(C)cc76)O[C@@H]1CO)[C@H]5CC(N)=O)[C@@](C)(CC(N)=O)[C@@H]4CCC(N)=O)[C@@](C)(CC(N)=O)[C@@H]3CCC(N)=O)C(C)(C)[C@@H]2CCC(N)=O.[C-]#N.[Co+3],inactive: -5.78%
26,CCOC(=O)C(CC)C1=NC(C)(C)Cc2ccccc21.O=[N+]([O-])c1cc([N+](=O)[O-])c(O)c([N+](=O)[O-])c1 (centres undefined),inactive: -4.69%
27,Cc1nc2ccc3ccccc3c2s1.O=[N+]([O-])c1cc([N+](=O)[O-])c(O)c([N+](=O)[O-])c1,inactive: 4.76%

row,Structure (SMILES),activation
1,O=[N+]([O-])c1cc([N+](=O)[O-])c(-n2nnc3ccccc32)c([N+](=O)[O-])c1,inactive: -0.633%
2,CP(=O)(Nc1cccc(Br)c1)Oc1ccccc1 (centres undefined),inactive: -2.11%
3,Cc1cc(C)cc(OP(C)(=O)Nc2ccccn2)c1 (centres undefined),inactive: 1.86%
4,Cc1ccc(C)c(NP(C)(=O)Oc2ccccc2)c1 (centres undefined),inactive: 7.56%
5,Cc1cc(C)cc(OP(C)(=O)Nc2ccc(C)cc2C)c1 (centres undefined),inactive: 2.4%
6,CCOC(=O)c1ccc(NP(C)(=O)Oc2cc(C)cc(C)c2)cc1 (centres undefined),inactive: -5.43%
7,COc1ccccc1OP(C)(=O)Nc1cccc(Br)c1 (centres undefined),inactive: -1.37%
8,CC1=NCCc2c1[nH]c1ccccc21.O=[N+]([O-])c1cc([N+](=O)[O-])c(O)c([N+](=O)[O-])c1,inactive: -2.96%
9,O=C(O)c1cccc(Nc2c([N+](=O)[O-])cc([N+](=O)[O-])cc2[N+](=O)[O-])c1,inactive: -7.18%
10,CP(=O)(Nc1ccccc1)Oc1ccc(F)cc1 (centres undefined),inactive: -1.51%
11,CCN(CC)CCCOC(=O)C(O)(c1ccccc1)C1CCCCC1 (centres undefined),inactive: 12.7%
12,Cc1c([N+](=O)[O-])cc([N+](=O)[O-])c(Br)c1[N+](=O)[O-],inactive: -1.47%
13,COc1ccc(OP(C)(=O)Nc2ccc(SC(F)(F)F)cc2)cc1 (centres undefined),inactive: -2.71%
14,CCOC(=O)c1ccc(NP(C)(=O)Oc2ccc(F)cc2)cc1 (centres undefined),inactive: 8.03%
15,COc1ccc2c(c1O)-c1c(O)c(OC)cc3c1[C@H](C2)[N+](C)(C)CC3.O=[N+]([O-])c1cc([N+](=O)[O-])c([O-])c([N+](=O)[O-])c1[O-],inactive: -17.1%
16,O=C(OCCN1CCN(CCOCc2ccccc2)CC1)C(O)(c1ccccc1)c1ccccc1,inactive: -5.04%
17,CC(C)c1ccc(OP(C)(=O)Nc2ccc(SC(F)(F)F)cc2)cc1 (centres undefined),inactive: 0.948%
18,CP(=O)(Nc1ccccc1F)Oc1ccccc1 (centres undefined),inactive: 2.89%
19,CP(=O)(Nc1ccc2c(c1)OCCO2)Oc1ccccc1 (centres undefined),inactive: -46%
20,CCOP(C)(=S)SCC(=O)NC(C)(CC)C(=O)O (centres undefined),inactive: 2.61%
21,Cc1c(C(c2ccc3c(c2)OCO3)c2c(C)n(C)n(-c3ccccc3)c2=O)c(=O)n(-c2ccccc2)n1C.O=[N+]([O-])c1cc([N+](=O)[O-])c(O)c([N+](=O)[O-])c1,inactive: 9.28%
22,Cc1cc(-c2cccc3ccccc23)c(C)cn1.O=[N+]([O-])c1cc([N+](=O)[O-])c(O)c([N+](=O)[O-])c1,inactive: -3.97%
23,O=[N+]([O-])c1cc([N+](=O)[O-])c(NCC2CCS(=O)(=O)C2)c([N+](=O)[O-])c1 (centres undefined),inactive: -43.8%
24,O=[N+]([O-])c1ccc(OP2(=O)COCCO2)cc1 (centres undefined),inactive: -4.85%
25,COc1ccc(NP(C)(=O)Oc2ccccc2OC)cc1 (centres undefined),inactive: -19.4%
26,CN(C)CCOC(=O)C(O)(c1ccccc1)C1CCCCC1 (centres undefined),inactive: 10.5%
27,CP(=O)(OC12CC3CC(CC(C3)C1)C2)OC12CC3CC(CC(C3)C1)C2,inactive: -6.09%
